According to US20090298857A1, “Treatment of Neurodegenerative Diseases Through Inhibition of HSP90” (SLOAN-KETTERING INSTITUTE FOR CANCER RESEARCH, priority 2006, published 2009):

Tested on: Hsp90 in JNPL3 brain extracts

- EC50: 29.9 nM
Structure (SMILES): C#CCN(C)CCCn1c(Cc2cc3c(cc2I)OCO3)nc2c(N)nc(F)nc21 [PU-BSI11]
